Biological target: T1, human Nerve Growth Factor (Homo sapiens, UniProt P01138)
T1 construct: human Nerve Growth Factor (beta-NGF), mature growth factor; also called hNGF; human NGF; source: obtained according to Covaceuszach et al. [77]
Experiment: SPR; BIACore; hNGF amine-coupled on CM5 chips (89, 93, 100 RU); Fab hum-αD11 0.39-25 nM injected in HBSEP pH 7.4 with 100 µg/ml BSA, 50 µl/min; triplicate; apparent constants
Settings: both partners purified

Sequences of proteins named here, by UniProt entry; tags and fusion partners are left off. Residues count along the entry.
UniProt P01138, 122-241: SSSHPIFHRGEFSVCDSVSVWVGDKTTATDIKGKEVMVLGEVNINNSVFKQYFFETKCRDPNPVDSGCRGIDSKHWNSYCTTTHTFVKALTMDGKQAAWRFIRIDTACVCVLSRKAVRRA

B1: Fab fragment of the humanized anti-NGF antibody hum-αD11 (Fab, V domains shown)
VH: EVQLVESGGGLVQPGGSLRLSCAASGFSLTNNNVNWVRQAPGKGLEWVGGVWAGGATDYNSALKSRFTISRDNSKNTAYLQMNSLRAEDTAVYYCARDGGYSSSTLYAMDAWGQGTLVTVSS
VL: DIQMTQSPSSLSASVGDRVTITCRASEDIYNALAWYQQKPGKAPKLLIYNTDTLHTGVPSRFSGSGSGTDYTLTISSLQPEDFATYFCQHYFHYPRTFGQGTKVEIK
notes: as the VH of m3 (hum-αD11 VH); constant part of the Fab heavy chain; not described for the Fab provided by PanGenetics; as the Vκ of m3 (hum-αD11 Vκ); positions L46 and L87 mutated to the rat αD11 residue, Kabat numbering; constant part of the Fab light chain; also called Fab hum-αD11; source: kindly provided by PanGenetics UK Ltd
  koff: 1.1e-05 s⁻¹
  kon: 380000 M⁻¹ s⁻¹
